Reference: US20250195530A1, “POLQ INHIBITORS” (ASTRAZENECA AB, priority 2022, published 2025)
Read-outs that look alike come from different tables or passages of the source.

Amino acid sequences for entries named in this document (tags omitted). Residues count along the entry.
UniProt O75417, 1780-2590: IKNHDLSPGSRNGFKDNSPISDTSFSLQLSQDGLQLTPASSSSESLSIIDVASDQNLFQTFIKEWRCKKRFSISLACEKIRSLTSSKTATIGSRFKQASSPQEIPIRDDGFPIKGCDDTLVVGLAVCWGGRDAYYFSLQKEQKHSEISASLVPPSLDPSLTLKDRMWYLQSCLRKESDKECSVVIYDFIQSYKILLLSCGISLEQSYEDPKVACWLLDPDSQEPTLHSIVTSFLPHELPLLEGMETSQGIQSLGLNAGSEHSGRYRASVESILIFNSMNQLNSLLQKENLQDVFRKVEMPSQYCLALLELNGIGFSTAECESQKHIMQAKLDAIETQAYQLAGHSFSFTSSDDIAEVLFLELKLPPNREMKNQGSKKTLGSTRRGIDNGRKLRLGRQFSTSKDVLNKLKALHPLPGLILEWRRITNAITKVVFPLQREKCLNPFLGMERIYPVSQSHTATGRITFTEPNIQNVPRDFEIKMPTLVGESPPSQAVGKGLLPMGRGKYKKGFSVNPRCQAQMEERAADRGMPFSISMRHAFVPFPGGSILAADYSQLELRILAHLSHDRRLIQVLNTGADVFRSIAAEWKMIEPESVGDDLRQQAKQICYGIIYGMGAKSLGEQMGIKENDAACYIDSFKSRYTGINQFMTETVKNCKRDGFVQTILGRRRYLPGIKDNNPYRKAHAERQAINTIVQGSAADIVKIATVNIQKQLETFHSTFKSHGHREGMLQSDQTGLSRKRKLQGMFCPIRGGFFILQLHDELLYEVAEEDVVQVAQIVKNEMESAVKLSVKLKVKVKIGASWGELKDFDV

Key:
[1] = biological target: T1, isolated polymerase domain (I1780-V2590) of DNA polymerase theta (Polθ) (Homo sapiens (Human), UniProt O75417)
[2] = biological target: T1, isolated polymerase domain (I1780-V2590) of DNA polymerase theta (Polθ); assay: biochemical

| IC50 [1] | IC50 [2] | Compound |
| --- | --- | --- |
| 3.98 nM |  | Cc1ccnc(Cn2c(-c3ccc(OCc4nnc5n4CCNC5)cc3Cl)nc3c(OC4(C)CC4)ncnc32)c1 [Example T433] |
| 5.01 nM |  | CC1(Oc2ncnc3c2nc(-c2ccc(O[C@H]4CC[C@H](C(=O)O)CC4)cc2Cl)n3Cc2ccccc2C#N)CC1 [Example U19, (1r,4r)-4-(3-chloro-4-(9-(2-cyanobenzyl)-6-(1-methylcyclopropoxy)-9H-purin-8-yl)phenoxy)cyclohexane-1-carboxylic acid] |
| 7.94 nM |  | COc1ccc(Cl)cc1Cn1c(-c2ccc(O[C@H]3CC[C@H](C(=O)O)CC3)cc2Cl)nc2c(OC3(C)CC3)ncnc21 [Example U43, (1r,4r)-4-(3-chloro-4-(9-(5-chloro-2-methoxybenzyl)-6-(1-methylcyclopropoxy)-9H-purin-8-yl)phenoxy)cyclohexane-1-carboxylic acid] |
| 3.16 nM |  | COc1ccc(F)cc1Cn1c(-c2cccc(O[C@H]3CC[C@H](C(=O)O)CC3)c2Cl)nc2c(OC3(C)CC3)ncnc21 [Example U69, (1r,4r)-4-(2-chloro-3-(9-(5-fluoro-2-methoxybenzyl)-6-(1-methylcyclopropoxy)-9H-purin-8-yl)phenoxy)cyclohexane-1-carboxylic acid] |
| 2 nM |  | CC1(Oc2ncnc3c2nc(-c2ccc(OCCN4C[C@H]5C[C@@H]4CN5)cc2Cl)n3Cc2ccccc2)CC1 [Example R20, 8-(4-(2-((1R,4R)-2,5-diazabicyclo[2.2.1]heptan-2-yl)ethoxy)-2-chlorophenyl)-9-benzyl-6-(1-methylcyclopropoxy)-9H-purine] |
| 10 nM |  | COc1ccc(Cl)cc1Cn1c(-c2ccc(O[C@H]3CC[C@@H](C(=O)O)CC3)cc2Cl)nc2c(OC3(C)CC3)ncnc21 [Example U40, (1s,4s)-4-(3-chloro-4-(9-(5-chloro-2-methoxybenzyl)-6-(1-methylcyclopropoxy)-9H-purin-8-yl)phenoxy)cyclohexane-1-carboxylic acid] |
|  | 7.94 nM | Cc1ccnc(Cn2c(-c3ccc(C4CCC(=O)N4)cc3Cl)nc3c(OC4(C)CC4)ncnc32)c1 (single isomer, unassigned) [Example T172, 5-(3-chloro-4-(6-(1-methylcyclopropoxy)-9-((4-methylpyridin-2-yl)methyl)-9H-purin-8-yl)phenyl)pyrrolidin-2-one] |
|  | 25.1 nM | Cc1ccnc(Cn2c(-c3ccc(C(=O)N4CC[C@@H](C#N)C4)cc3Cl)nc3c(OC4(C)CC4)ncnc32)c1 [Example T405, (R)-1-(3-chloro-4-(6-(1-methylcyclopropoxy)-9-((4-methylpyridin-2-yl)methyl)-9H-purin-8-yl)benzoyl)pyrrolidine-3-carbonitrile] |
|  | 15.8 nM | COc1ccc(Cn2c(-c3ccc(CC(N)=O)cc3Cl)nc3c(OC4(C)CC4)ncnc32)cc1 [Example T106, 2-(3-chloro-4-(9-(4-methoxybenzyl)-6-(1-methylcyclopropoxy)-9H-purin-8-yl)phenyl)acetamide] |
|  | 5.01 nM | COc1ccc(C)cc1Cn1c(-c2ccc(OCCC(C)C(=O)O)cc2Cl)nc2c(OC3(C)CC3)ncnc21 (racemic) [Example U1, 4-(3-chloro-4-(9-(2-methoxy-5-methylbenzyl)-6-(1-methylcyclopropoxy)-9H-purin-8-yl)phenoxy)-2-methylbutanoic acid] |
|  | 3.98 nM | Cc1cnc(Cn2c(-c3ccc(O[C@H]4CCN(C)C4)cc3Cl)nc3c(OC4(C)CC4)ncnc32)s1 [Example T140, (S)-2-((8-(2-chloro-4-((1-methylpyrrolidin-3-yl)oxy)phenyl)-6-(1-methylcyclopropoxy)-9H-purin-9-yl)methyl)-5-methylthiazole] |
|  | 15.8 nM | CC1(Oc2ncnc3c2nc(-c2ccc(CC(N)=O)cc2Cl)n3CCc2ccccc2)CC1 [Example T102, 2-(3-chloro-4-(6-(1-methylcyclopropoxy)-9-phenethyl-9H-purin-8-yl)phenyl)acetamide] |
|  | 5.01 nM | Cc1cnc(Cn2c(-c3ccc(OCCCN4CC[C@@H](O)C4)cc3Cl)nc3c(OC4(C)CC4)ncnc32)s1 [Example T391, (R)-1-(3-(3-chloro-4-(6-(1-methylcyclopropoxy)-9-((5-methylthiazol-2-yl)methyl)-9H-purin-8-yl)phenoxy)propyl)pyrrolidin-3-ol] |
|  | ≥ 10000 nM | Cn1cnnc1Cn1c(-c2ccc(OCCN3CCNCC3)cc2Cl)nc2c(OC3(C)CC3)ncnc21 [Example T150, 8-(2-chloro-4-(2-(piperazin-1-yl)ethoxy)phenyl)-9-((4-methyl-4H-1,2,4-triazol-3-yl)methyl)-6-(1-methylcyclopropoxy)-9H-purine] |
|  | 10 nM | C[C@@H](CCOc1ccc(-c2nc3c(OC4(C)CC4)ncnc3n2Cc2ccccc2C#N)c(Cl)c1)C(=O)O [Example T403, (S)-4-(3-chloro-4-(9-(2-cyanobenzyl)-6-(1-methylcyclopropoxy)-9H-purin-8-yl)phenoxy)-2-methylbutanoic acid] |
|  | 5.01 nM | CC1(Oc2ncnc3c2nc(-c2cccc(OCCOCC(=O)O)c2Cl)n3Cc2cc(Cl)ccc2F)CC1 [Example U22, 2-(2-(2-chloro-3-(9-(5-chloro-2-fluorobenzyl)-6-(1-methylcyclopropoxy)-9H-purin-8-yl)phenoxy)ethoxy)acetic acid] |
|  | 7.94 nM | CC1(Oc2ncnc3c2nc(-c2ccc(CC(N)=O)cc2Cl)n3Cc2cccc(F)c2)CC1 [Example T42, 2-(3-chloro-4-(9-(3-fluorobenzyl)-6-(1-methylcyclopropoxy)-9H-purin-8-yl)phenyl)acetamide] |
|  | 7.94 nM | Cc1ccnc(Cn2c(-c3ccc(OCC(=O)NC(C)C)cc3Cl)nc3c(OC4(C)CC4)ncnc32)c1 [Example T366, 2-(3-chloro-4-(6-(1-methylcyclopropoxy)-9-((4-methylpyridin-2-yl)methyl)-9H-purin-8-yl)phenoxy)-N-isopropylacetamide] |

More lines, now with the values behind:

| Compound | IC50 [1] | IC50 [2] |
| --- | --- | --- |
| CN1CCC(COc2ccc(-c3nc4c(OC5(C)CC5)ncnc4n3Cc3ccccc3)c(Cl)c2)CC1 [Example 5, 9-Benzyl-8-(2-chloro-4-((1-methylpiperidin-4-yl)methoxy)phenyl)-6-(1-methylcyclopropoxy)-9H-purine] | 2 nM |  |
| CC1(Oc2ncnc3c2nc(-c2ccc(OCCN4CCNCC4=O)cc2Cl)n3Cc2ccccc2)CC1 [Example M5, 1-(2-(4-(9-benzyl-6-(1-methylcyclopropoxy)-9H-purin-8-yl)-3-chlorophenoxy)ethyl)piperazin-2-one] | 3.98 nM |  |
| CN1CCC(Oc2cccc(-c3nc4c(OC5(C)CC5)ncnc4n3Cc3ccccc3)c2Cl)CC1 [Example D9, 9-benzyl-8-(2-chloro-3-((1-methylpiperidin-4-yl)oxy)phenyl)-6-(1-methylcyclopropoxy)-9H-purine] | 2.51 nM |  |
| CC(C)Oc1nccc2c1nc(-c1ccc(OCCN3CCNCC3)cc1Cl)n2Cc1ccccc1 [Example 9, 1-benzyl-2-(2-chloro-4-(2-(piperazin-1-yl)ethoxy)phenyl)-4-isopropoxy-1H-imidazo[4,5-c]pyridine] | 7.94 nM |  |
| CC(=O)N1CC(Oc2cc(C)c(-c3nc4c(OC5(C)CC5)ncnc4n3Cc3ccccc3)cn2)C1 [Example G10, 1-(3-((5-(9-benzyl-6-(1-methylcyclopropoxy)-9H-purin-8-yl)-4-methylpyridin-2-yl)oxy)azetidin-1-yl)ethan-1-one] | 5.01 nM |  |
| CC1(Oc2ncnc3c2nc(-c2ccc(OCCN4CCNCC4)cc2Cl)n3CCc2cccnc2)CC1 [Example J8, 8-(2-chloro-4-(2-(piperazin-1-yl)ethoxy)phenyl)-6-(1-methylcyclopropoxy)-9-(2-(pyridin-3-yl)ethyl)-9H-purine] | 100 nM |  |
| CC1(Oc2ccnc3c2nc(-c2ccc(OCCN4CCNCC4)cc2Cl)n3Cc2ccccn2)CCC1 [Example P3, 2-(2-chloro-4-(2-(piperazin-1-yl)ethoxy)phenyl)-7-(1-methylcyclobutoxy)-3-(pyridin-2-ylmethyl)-3H-imidazo[4,5-b]pyridine] | 6.31 nM |  |
| CC1(Oc2ccnc3c2nc(-c2ccc(OCCN4CCNCC4)cc2Cl)n3Cc2cc(Cl)ccn2)CC1 [Example 14, 2-(2-Chloro-4-(2-(piperazin-1-yl)ethoxy)phenyl)-3-((4-chloropyridin-2-yl)methyl)-7-(1-methylcyclopropoxy)-3H-imidazo[4,5-b]pyridine] | 2.51 nM |  |
| CC1(Oc2ncnc3c2nc(-c2ccc(OCCN4CC5(C4)CS(=O)(=O)C5)cc2Cl)n3Cc2ccccc2)CC1 [Example H20, 6-(2-(4-(9-benzyl-6-(1-methylcyclopropoxy)-9H-purin-8-yl)-3-chlorophenoxy)ethyl)-2-thia-6-azaspiro[3.3]heptane 2,2-dioxide] | 2.51 nM |  |
| CN1CCN(CCOc2ccc(-c3nc4c(OC5(C)CC5)ncnc4n3CCc3ccccc3)c(Cl)c2)CC1 [Example E4, 8-(2-chloro-4-(2-(4-methylpiperazin-1-yl)ethoxy)phenyl)-6-(1-methylcyclopropoxy)-9-phenethyl-9H-purine] | 5.01 nM |  |
| CN1CCN(CCOc2cc(F)c(-c3nc4c(OC5(C)CC5)ncnc4n3Cc3ccccc3)c(F)c2)CC1 [Example H1, 9-benzyl-8-(2,6-difluoro-4-(2-(4-methylpiperazin-1-yl)ethoxy)phenyl)-6-(1-methylcyclopropoxy)-9H-purine] | 2.51 nM |  |
| CN1CCN(CCOc2ccc(-c3nc4c(OC5(C)CC5)ncnc4n3Cc3cccc(Cl)c3)c(Cl)c2)CC1 [Example E2, 8-(2-chloro-4-(2-(4-methylpiperazin-1-yl)ethoxy)phenyl)-9-(3-chlorobenzyl)-6-(1-methylcyclopropoxy)-9H-purine] | 2.51 nM |  |
| CC1(Oc2ncnc3c2nc(-c2ccc(OC4CNC4)cc2Cl)n3Cc2ccccc2)CC1 [Example D35, 8-(4-(azetidin-3-yloxy)-2-chlorophenyl)-9-benzyl-6-(1-methylcyclopropoxy)-9H-purine] | 3.98 nM |  |
| CN1CCCC1CCOc1ccc(-c2nc3c(OC4(C)CC4)ncnc3n2Cc2ccccc2)c(Cl)c1 (single isomer, unassigned) [Example D3, 9-benzyl-8-(2-chloro-4-(2-(1-methylpyrrolidin-2-yl)ethoxy)phenyl)-6-(1-methylcyclopropoxy)-9H-purine] |  | 6.31 nM |
